# Assay results as given in article PMC9102781 (Molecules, 2022).
# Amino acid sequences for entries named in this document (tags omitted). Residues count along the entry.
# UniProt O42275, 24-633: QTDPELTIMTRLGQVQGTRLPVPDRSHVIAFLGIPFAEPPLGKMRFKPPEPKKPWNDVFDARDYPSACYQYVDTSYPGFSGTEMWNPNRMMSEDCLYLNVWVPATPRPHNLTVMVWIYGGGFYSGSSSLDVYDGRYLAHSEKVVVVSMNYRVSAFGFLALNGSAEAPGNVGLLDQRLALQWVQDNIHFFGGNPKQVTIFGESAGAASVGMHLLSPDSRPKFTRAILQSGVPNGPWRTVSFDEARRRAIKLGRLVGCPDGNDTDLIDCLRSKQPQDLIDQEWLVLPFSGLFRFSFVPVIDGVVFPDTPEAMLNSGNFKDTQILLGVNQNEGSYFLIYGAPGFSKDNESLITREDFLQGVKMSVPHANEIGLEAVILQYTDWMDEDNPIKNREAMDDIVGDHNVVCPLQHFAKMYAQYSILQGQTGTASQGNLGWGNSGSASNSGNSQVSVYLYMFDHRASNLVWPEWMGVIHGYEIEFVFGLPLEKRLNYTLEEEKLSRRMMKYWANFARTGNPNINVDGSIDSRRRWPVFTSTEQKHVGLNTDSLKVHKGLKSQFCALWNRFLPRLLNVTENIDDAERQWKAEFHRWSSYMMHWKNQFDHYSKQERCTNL
# Biological target: T1, Acetylcholinesterase (AChE) (Electrophorus electricus, UniProt O42275)
# T1 construct: purchased Sigma Aldrich type VI-S
# Assay: In vitro anti-acetylcholinesterase assay (Ellman's method)
# Type: biochemical
# From the text: In vitro enzyme assay reagents were purchased as previously described. Acetylcholinesterase (AChE) from Electrophorus electricus type VI-S lyophilized powder (137 units/mg) was acquired from Sigma Aldrich (St. Louis, MO, USA). Substrate acetylthiocholine iodide (ATCl) and sodium phosphate monobasic and dibasic anhydrous used for buffer preparation were obtained from Wako Pure Chemical (Osaka, Japan). Coloring reagent 5,5′-dithio-bis-(2-nitrobenzoic acid) (DTNB) was acquired from Nacalai Tesque (Kyoto, Japan). Positive control physostigmine was obtained from TCI Tokyo Chemical Industry (Tokyo, Japan). All other reagents acquired from commercial sources were of analytical grade.
# The plant fractions and isolated compounds were evaluated for their anti-AChE potential in triplicate based on the Ellman’s method described previously. Physostigmine was used as a positive control.
structure (smiles),measurement,value
"CNC(=O)Oc1ccc2c(c1)[C@]1(C)CCN(C)[C@@H]1N2C [Physostigmine, reference compound]",IC50,0.1 µM
